# This is a selection; strong and weak results do not stand in their true shares. Active and inactive are the calls of the source.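 Rule for the calls: active = mean inhibition across replicates above the hit cutoff set in the primary screen (cut at about 8.5% in these data); inactive = the rest.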
# Sequences of proteins named here, by UniProt entry; tags and fusion partners are left off. Residues count along the entry.
# UniProt P78536, 215-824 limits assumed: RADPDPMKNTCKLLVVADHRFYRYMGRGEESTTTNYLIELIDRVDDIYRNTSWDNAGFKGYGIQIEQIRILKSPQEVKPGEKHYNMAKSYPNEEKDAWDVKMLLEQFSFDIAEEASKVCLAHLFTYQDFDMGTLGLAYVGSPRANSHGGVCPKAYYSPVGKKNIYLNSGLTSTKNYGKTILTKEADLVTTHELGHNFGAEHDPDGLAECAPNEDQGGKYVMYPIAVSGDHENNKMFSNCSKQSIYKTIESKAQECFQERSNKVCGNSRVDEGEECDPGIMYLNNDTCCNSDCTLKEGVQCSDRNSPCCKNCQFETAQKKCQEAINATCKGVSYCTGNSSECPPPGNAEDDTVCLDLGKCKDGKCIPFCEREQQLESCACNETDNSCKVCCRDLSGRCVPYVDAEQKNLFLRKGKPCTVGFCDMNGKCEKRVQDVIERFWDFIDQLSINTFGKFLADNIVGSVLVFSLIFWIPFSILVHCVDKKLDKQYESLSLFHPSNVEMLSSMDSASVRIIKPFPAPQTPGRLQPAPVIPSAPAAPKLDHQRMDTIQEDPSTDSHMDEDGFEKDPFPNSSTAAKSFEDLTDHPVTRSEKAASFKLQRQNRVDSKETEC
# Target: Disintegrin and metalloproteinase domain-containing protein 17 (Homo sapiens) (UniProt P78536)
# Assay: ADAM17 inhibitors, hit retest, confirmation, biochemical, QFRET peptide cleavage (AID 743257);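 note: 0% = DMSO wells and 100% = marimastat wells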
# Conditions: recombinant ADAM17, EDANS/DABCYL QFRET peptide cleavage; at 6.95 µM; hits give high values
# In short: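 Assay system: ADAM17 protease; Medium: 50 mM HEPES pH 7.5, 0.01% Brij; Reagent: EDANS/DABCYL DM2 peptide substrate; Doses: 6.95 µM compound, single dose; Schedule: 30 min preincubation, 3 h reaction; Technique: FRET fluorescence, excitation 359 nm, emission 460 nm; Read-out: percent inhibition; Controls: DMSO wells and 1 µM marimastat wells as references.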
row,Compound,inhibition
1,CC(C)(C)n1nnnc1C(c1cccc2ccccc12)N1CCC(n2c(=O)[nH]c3ccccc32)CC1 (stereo unspecified),active: 20.5%
